Data taken from patent US6664252B2, “4-aminopyrrolo[2,3-d]pyrimidine compounds specific to adenosine A2a receptor and uses thereof” (OSI Pharmaceuticals, Inc., priority 1999, dated 2003).

Chains of the proteins cited; added tags and fusions are not shown.
UniProt P30542, whole entry: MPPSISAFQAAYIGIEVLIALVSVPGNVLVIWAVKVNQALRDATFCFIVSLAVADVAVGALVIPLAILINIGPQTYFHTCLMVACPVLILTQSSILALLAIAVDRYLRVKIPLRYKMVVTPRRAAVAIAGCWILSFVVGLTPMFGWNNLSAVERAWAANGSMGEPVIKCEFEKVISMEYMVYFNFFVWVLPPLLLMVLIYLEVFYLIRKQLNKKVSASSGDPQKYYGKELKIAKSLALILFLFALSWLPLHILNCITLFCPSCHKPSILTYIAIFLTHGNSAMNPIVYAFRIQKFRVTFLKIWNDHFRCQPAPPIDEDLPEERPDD
UniProt P0DMS8, whole entry: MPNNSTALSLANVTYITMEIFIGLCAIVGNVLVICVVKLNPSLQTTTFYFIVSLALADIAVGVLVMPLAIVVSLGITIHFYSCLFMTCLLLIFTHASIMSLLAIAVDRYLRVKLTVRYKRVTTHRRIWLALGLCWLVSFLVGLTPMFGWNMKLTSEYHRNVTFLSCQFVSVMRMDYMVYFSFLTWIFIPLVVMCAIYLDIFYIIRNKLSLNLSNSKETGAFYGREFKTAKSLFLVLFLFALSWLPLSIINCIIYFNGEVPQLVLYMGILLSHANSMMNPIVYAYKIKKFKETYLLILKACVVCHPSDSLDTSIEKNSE

Key:
[1] = biological target: human A1 adenosine receptor (Homo sapiens, UniProt P30542); experiment: fus1-LacZ β-galactosidase assay, agonist stimulation; type: cell-based; parameters: yeast alpha-factor (MFalpha1) prepro leader (N, cleaved yes); expressed in transfected cells; host or cells: Saccharomyces cerevisiae (strain CY12660 and related strains carrying plasmid p5095); settings: NECA concentration of 10^−8 M
human A3 receptor = human A3 receptor (Homo sapiens, UniProt P0DMS8); experiment: Displacement binding of [3H]CPX, yeast membranes expressing hA3R; settings: read-out: IC50 [nM] hA3R, 0.4 nM [3H]CPX

IC50 (human A3 receptor)	Structure (SMILES)	stimulation of β-galactosidase activity [1]
–	CCNC(=O)[C@H]1O[C@@H](n2cnc3c(N)ncnc32)[C@H](O)[C@@H]1O [NECA, 5′-N-ethylcarboxamidoadenosine]	approximately 2 fold
23.6 nM	CC(Cc1ccccc1)Nc1ncnc2c1ncn2[C@@H]1O[C@H](CO)[C@@H](O)[C@H]1O (single isomer, unassigned; (-))	–
